In ChEMBL document CHEMBL4706572, “Benzyl and benzoyl benzoic acid inhibitors of bacterial RNA polymerase-sigma factor interaction” (Eur J Med Chem, 2020):

Key:
HepG2 = conditions: human
A549 = assay: (§1) Cytotoxicity against human A549 cells after 48 to 72 hrs by MTT assay; type: ADME, cell-based; conditions: a549, time 48-72 hrs
Outline: (§2)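 A549 lung carcinoma cells seeded at 2.5 × 10^5 per well, grown 24 h at 37 °C, then given two-fold serial dilutions from 50 μg/mL to 1.56 μg/mL and incubated a further 24 h at 37 °C. MTT read-out at 48 h and 72 h after compound addition. 5-fluorouracil as positive control, DMSO as negative control.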

[1] = as §1; type: ADME, cell-based; conditions: A549 cells, time 48-72 hrs
Outline: as §2

[2] = Drug metabolism in rat liver microsomes at 10 uM preincubated with microsomes followed by NADPH addition and measured after 60 mins by LC-MS/MS analysis; type: ADME, Microsome; conditions: read-out: Drug metabolism

| SMILES | CC50 (HepG2) | CC50 (A549) | CC50 [1] | metabolised at 1 h, 10 µM [2] |
| --- | --- | --- | --- | --- |
| O=C(O)c1cc(C(F)(F)F)ccc1Cc1ccc(Sc2ccc(Cl)c(Cl)c2)c([N+](=O)[O-])c1 | 3.41 mM | 14.8 mM |  |  |
| O=C(O)c1ccc(Cl)cc1Cc1ccc(Sc2ccc(Cl)c(Cl)c2)c([N+](=O)[O-])c1 | 3.9 mM | 24 mM |  |  |
| O=C(O)c1ccc(C(F)(F)F)cc1Cc1ccc(Sc2ccc(Cl)c(Cl)c2)c([N+](=O)[O-])c1 | 0.145 mM | 0.129 mM |  |  |
| O=C(O)c1ccc(C(F)(F)F)cc1C(=O)c1ccc(Sc2ccc(Cl)c(Cl)c2)c([N+](=O)[O-])c1 | 0.387 mM |  | 18.4 mM |  |
| NC(=O)N1c2ccccc2C=Cc2ccccc21 [CARBAMAZEPINE] |  |  |  | 39.4% |
